Values quoted from earlier work, collected in patent publication US20240350590A1, “COMPOSITION FOR ORALLY ADMINISTERED FORMULATION CONTAINING GLP-1 ANALOGUE” (HANMI PHARM. CO., LTD., priority 2021, published 2024).

Conditions: longer than that of GLP-1

exendin-4
half-life in the body: 2 to 4 h
